# Values quoted from earlier work as cited in patent publication US11896701B2, “Method for dyeing keratin material, comprising the use of an organic C1-C6 alkoxy silane and tannic acid” (Henkel AG & Co. KGaA, priority 2019, dated 2024).
# Settings: 25° C.
substance,measurement,value
"3,4,5,6-tetrachloro-2-(1,4,5,8-tetrabromo-6-hydroxy-3-oxoxanthen-9-yl)benzoic acid [Acid Red 92]",solubility in water,greater than 10 g/L
